# Yeast mating assay 2: variants of the scFv Ab-95

Target peptide (SARS-CoV-2 spike, HR2 region): PDVDLGDISGINAS

Parent: Ab-95, a human scFv built as VH, three GGGGS repeats, VL. Only the CDRs of the light chain vary.
VH: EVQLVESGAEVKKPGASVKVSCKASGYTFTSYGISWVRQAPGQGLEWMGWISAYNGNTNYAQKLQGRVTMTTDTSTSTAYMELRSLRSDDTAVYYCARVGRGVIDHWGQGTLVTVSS
VL: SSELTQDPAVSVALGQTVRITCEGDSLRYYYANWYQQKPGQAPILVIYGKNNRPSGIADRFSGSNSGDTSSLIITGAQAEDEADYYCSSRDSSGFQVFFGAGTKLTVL

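The parent was found by panning a naive human phage display library on the peptide. AAYL52 was designed without a model: most single CDR substitutions and a random sample of double and triple ones. Affinity was read by AlphaSeq, a pooled yeast mating assay with surface-displayed partners. The frequency of each diploid, read from paired DNA barcodes, reflects how well the two displayed proteins bind. Scores were corrected for input abundance and mapped to Kd with protein pairs of known affinity run in the same pool. The assay was run in three technical replicates.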

Changes read parent residue, position, new residue, counted from the first residue of the VL shown. Numbers give log10(Kd / nM), so 0 is 1 nM and 3 is 1 µM. Smaller is tighter. The mean shown is taken over the replicates in which the pair was detected. A pair that was not seen in any replicate is written "nd"; this usually means weak binding, but a binder can also be missed. The list is sorted by this average, lowest first, undetected variants last. For reference, the parent read 2.31 as the reference entry and 2.25 as a member of this library.

changes,"mean, log10 nM",replicates with signal,empty controls
E23T Y31N N51A,0.77,3/3,4/9
L27F Y30G G94P,1.35,3/3,5/9
Y30G P54F V97W,1.40,3/3,5/9
K50E S93G,1.57,3/3,2/9
Y31E P54V F95M,1.60,3/3,0/9
S92F S93L G94K,1.85,3/3,1/9
S88E Q96K,2.12,3/3,1/9
S89E D91G S92I,2.35,3/3,1/9
D25Y S26Y Y31I,2.42,3/3,1/9
S88N F95K Q96S,2.50,1/3,1/9
G24W L27M S89P,2.57,1/3,2/9
S26G D91A,2.60,3/3,2/9
R28S F95H F98W,2.62,3/3,1/9
K50V F98C,2.76,2/3,4/9
S89P D91A F98A,2.77,3/3,1/9
K50I S89C S93R,2.78,3/3,5/9
G24N Y30R,2.83,3/3,2/9
L27K S89E,2.98,3/3,6/9
N33E G49A,2.99,3/3,1/9
S55Q G94D,3.00,2/3,5/9
D91N S93I Q96T,3.21,3/3,5/9
R28E Q96P,3.23,3/3,1/9
A32S N51M Q96I,3.33,1/3,2/9
S26Q R90D Q96G,3.36,3/3,2/9
L27F S88K F95I,3.36,3/3,3/9
Y30W S88E R90T,3.48,2/3,2/9
L27A N52K S55D,3.51,3/3,4/9
G24E R28H N33Q,3.65,1/3,2/9
E23S Y30I P54Q,3.65,2/3,0/9
S26Y N33P P54W,3.68,2/3,4/9
G49C N51K Q96S,3.81,2/3,1/9
N33T S89I R90N,3.84,1/3,2/9
Y31I A32L V97T,3.86,1/3,2/9
A32R N51S F95E,3.86,3/3,4/9
L27G D91F V97W,3.88,2/3,5/9
S26E N33V R90Y,3.92,3/3,2/9
G24W R53E G94M,3.98,1/3,1/9
L27D D91C Q96K,4.03,1/3,4/9
N51V N52M S92G,4.09,2/3,5/9
S26E N33H G94Y,4.10,1/3,2/9
E23M R90H V97D,4.23,1/3,0/9
G24Q Y29V V97Y,4.28,2/3,4/9
S26K N51T S88F,4.29,1/3,1/9
S92F F98E,4.40,1/3,0/9
N51C D91N F95T,4.96,1/3,4/9
Y29W A32Q,5.09,1/3,1/9
Y30M Y31R N33R,5.28,1/3,3/9
S26K G49Q G94L,nd,0/3,0/9
A32K D91W,nd,0/3,3/9
R28H N33M,nd,0/3,1/9
S26W R28P Y29L,nd,0/3,5/9
S26P N33T R90N,nd,0/3,2/9
D25A G49M P54E,nd,0/3,0/9
L27H Y30T G49V,nd,0/3,2/9
S26T S89R,nd,0/3,0/9
E23P R28T S88Y,nd,0/3,2/9

The opening 4 entries, copied out:

changes,"mean, log10 nM",replicates with signal,empty controls
E23T Y31N N51A,0.77,3/3,4/9
L27F Y30G G94P,1.35,3/3,5/9
Y30G P54F V97W,1.40,3/3,5/9
K50E S93G,1.57,3/3,2/9

As a blank, each scFv also met three strains without target: over library AAYL52, 28% of these pairings were detected, typically at 3.91 and seldom below 2.90. The control count says in how many pairings with the empty strains this scFv gave a signal.

Reference: Engelhart et al. 2022, doi:10.1038/s41597-022-01779-4. File: FLAb, binding data.